Shown are actives, neighbours in structure and some others; about 0.46% of the full set was active somewhere.
HCMV NEC inh = cytomegalovirus nuclear egress complex inhibition; hit rate 0.15% among 190,000; inhibition, % (no concentration beside the values); AID 1918969; HTRF UL50-UL53 interaction, normalized percent inhibition; in the data active = inhibition above about 27%, passing the limit was not always enough
GIV Gai3 FP = blocks GIV peptide binding to rat Galpha-i3. P08753. Galpha-i3/FITC-GIV peptide fluorescence polarization, 90 min; hits give low values; scaled: aluminum fluoride 0%, vehicle 100%. percent of control (FP), % (concentration not given with the values). actives 0.42% (n = 210,000). AID 1224905;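 active = replicate mean at 85% of control or lower, very high polarization wells dropped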;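 also: wells of about 15 µL received 100 nL stock; the first replicate is given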
GIV Gai FP conf = confirmation of inhibitors of GIV binding to rat Galpha-i3; AID 1259350; shares compounds with GIV Gai3 FP; fluorescence polarization, mP at 100 µM; FITC-GIV peptide binding to Galphai3, fluorescence polarization; active compounds read low; hit rate 38% among 580;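 active = inhibition score of 15 or more, meaning 100 minus mean polarization as percent of control over three replicates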;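 note: lower mP means peptide displaced from Galphai3 so more inhibition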
GIV Gai AS conf = GIV-Galpha-i3 inhibition, AlphaScreen confirmation; hit rate 39% among 580; AID 1259351; shares compounds with GIV Gai3 FP; AlphaScreen counts at 100 µM; AlphaScreen Galphai3-GIV binding, purified proteins, 90 min; active compounds read low;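 active = inhibition score at or above a set limit, where the score is 100 minus the three-replicate mean percent of control signal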
Starred values were filed as active, the others as inactive.

Screening CC(C)c1cc(C2CCCN2Cc2cn[nH]c2-c2cccs2)no1 (stereo unspecified) returned GIV Gai3 FP 117.
For CCCC1C2CN(C(C)C)CC=C2C(C#N)=C(N)C1(C#N)C#N (stereo unspecified) the results were HCMV NEC inh -62, GIV Gai3 FP 79*, GIV Gai FP conf 66 and GIV Gai AS conf 23056.
For CCOC(=O)N1CC=C2C(C#N)=C(N)C(C#N)(C#N)C(CC)C2C1 (stereo unspecified) the results were HCMV NEC inh -33 and GIV Gai3 FP 126.
COc1ccc(-c2nc3ccc(C(=O)N4CCN(c5ccccc5)CC4)cc3nc2-c2ccc(OC)c(OC)c2)cc1OC was read as GIV Gai3 FP 102.
Screening CCOC(=O)N1CCN(C(=O)c2ccc3nc(-c4ccc(OC)c(OC)c4)c(-c4ccc(OC)c(OC)c4)nc3c2)CC1 returned GIV Gai3 FP 84*, GIV Gai FP conf 65 and GIV Gai AS conf 50289.
For Cc1ccc(N2CCN(S(=O)(=O)N3CCOCC3)CC2)cc1Cl the results were HCMV NEC inh -4 and GIV Gai3 FP 98.
CCOC(=O)C1=C(C)N=c2s/c(=C\c3cc([N+](=O)[O-])ccc3N3CCOCC3)c(=O)n2C1c1cccc(OC)c1 (stereo unspecified) was read as HCMV NEC inh -21, GIV Gai3 FP 90, GIV Gai FP conf 63 and GIV Gai AS conf 56560.
CCOC(=O)C1=C(C)N=c2s/c(=C\c3cc([N+](=O)[O-])ccc3N3CCOCC3)c(=O)n2C1c1ccccc1 (stereo unspecified) was read as HCMV NEC inh -3 and GIV Gai3 FP 97.
`CCOC(=O)CC(=O)CSc1nc(-c2cccs2)cc(-c2cccs2)c1C#N` gave GIV Gai3 FP 115.
`CCOC(=O)CC(=O)CSc1nc2c(c(-c3cccs3)c1C#N)CCC2` gave GIV Gai3 FP 96, GIV Gai FP conf 68 and GIV Gai AS conf 43008.

Next section; the last five above are carried over.
For Cc1ccc(N2CCN(S(=O)(=O)N3CCOCC3)CC2)cc1Cl the results were HCMV NEC inh -4 and GIV Gai3 FP 98.
CCOC(=O)C1=C(C)N=c2s/c(=C\c3cc([N+](=O)[O-])ccc3N3CCOCC3)c(=O)n2C1c1cccc(OC)c1 (stereo unspecified) was read as HCMV NEC inh -21, GIV Gai3 FP 90, GIV Gai FP conf 63 and GIV Gai AS conf 56560.
CCOC(=O)C1=C(C)N=c2s/c(=C\c3cc([N+](=O)[O-])ccc3N3CCOCC3)c(=O)n2C1c1ccccc1 (stereo unspecified) was read as HCMV NEC inh -3 and GIV Gai3 FP 97.
`CCOC(=O)CC(=O)CSc1nc(-c2cccs2)cc(-c2cccs2)c1C#N` gave GIV Gai3 FP 115.
`CCOC(=O)CC(=O)CSc1nc2c(c(-c3cccs3)c1C#N)CCC2` gave GIV Gai3 FP 96, GIV Gai FP conf 68 and GIV Gai AS conf 43008.
Screening Cc1ccc(C)n1-c1cccc(C(=O)O)c1 returned HCMV NEC inh 21.
`Cc1ccc(C)n1-c1sccc1C(=O)O` gave HCMV NEC inh 28, GIV Gai3 FP 27*, GIV Gai FP conf 55 and GIV Gai AS conf 3223*.
Cc1ccc(C)n1-c1sccc1C(=O)CC#N was read as HCMV NEC inh -12 and GIV Gai3 FP 106.
For Cc1ccc(C)n1-c1ccc(C(=O)O)c(C(=O)O)c1 the results were HCMV NEC inh 11, GIV Gai3 FP 60*, GIV Gai FP conf 49* and GIV Gai AS conf 3015*.
For Cc1ccc(C)n1-c1ccc(CC(=O)O)cc1 the results were HCMV NEC inh -23, GIV Gai3 FP 36*, GIV Gai FP conf 33* and GIV Gai AS conf 2612*.
CCc1ccc(-n2c(C)ccc2C)cc1 was read as HCMV NEC inh -34.
`O=C(c1cccc(F)c1)N1CCC(c2c[nH]c3ccccc23)(c2c[nH]c3ccccc23)CC1` gave HCMV NEC inh -35 and GIV Gai3 FP 104.
For O=C(On1c(C2CCCCC2)nc2ccccc2c1=O)c1ccccc1F the results were HCMV NEC inh -6 and GIV Gai3 FP 97.
`COc1ccc(OC)c(NC(=O)N2CCC3(CC2)Nc2cc(OC)ccc2-n2cccc23)c1` gave GIV Gai3 FP 106.
For O=C(Nc1ccccc1O)c1sc2ccccc2c1Cl the results were HCMV NEC inh -22.
Screening Cc1ccc(CCC(=O)Nc2ccc(C(=O)O)cc2)o1 returned HCMV NEC inh -3.
O=C1NC(=S)NC(=O)C1=Cc1ccc(OCc2ccc(C(=O)O)cc2)c(Br)c1 was read as HCMV NEC inh -20, GIV Gai3 FP 86, GIV Gai FP conf 11* and GIV Gai AS conf 2330*.
Screening COc1cc(/C=C2\C(=O)NC(=O)N(C)C2=O)ccc1OCc1ccc(C(=O)O)cc1 returned HCMV NEC inh 0 and GIV Gai3 FP 107.
For O=C(O)COc1ccc(/C=C2\C(=O)NC(=S)N(c3ccc(Cl)cc3)C2=O)cc1Br the results were HCMV NEC inh -30, GIV Gai3 FP 73*, GIV Gai FP conf 34* and GIV Gai AS conf 55572.
For O=C(O)COc1ccc(/C=C2\C(=O)NC(=S)N(c3ccc(F)cc3)C2=O)cc1Br the results were HCMV NEC inh -33 and GIV Gai3 FP 92.
For CNC(=O)CSc1ncnc2sc3c(c12)CCCC3 the results were HCMV NEC inh -20 and GIV Gai3 FP 103.
COc1cccc(C2=CC(c3ccccc3F)n3c(nc4ccccc43)N2)c1 (stereo unspecified) was read as GIV Gai3 FP 101.
Screening COc1ccccc1C1C=C(c2cccnc2)Nc2nc3ccccc3n21 (stereo unspecified) returned HCMV NEC inh -52, GIV Gai3 FP 69*, GIV Gai FP conf 48* and GIV Gai AS conf 30087.
`Cc1c(N(CC(=O)NN=C2CCC(C(C)(C)C)CC2)S(=O)(=O)c2ccccc2)c(=O)n(-c2ccccc2)n1C` (stereo unspecified) gave GIV Gai3 FP 105.
Screening ClCC1=Nc2ccccc2C(c2ccccc2)(c2ccccc2)O1 returned GIV Gai3 FP 106.
`Cc1ccc(C(c2c(C)[nH]n(-c3ccccc3)c2=O)c2c(C)[nH]n(-c3ccccc3)c2=O)cc1` gave GIV Gai3 FP 107.
For COc1ccc(C(c2c(C)[nH]n(-c3ccccc3)c2=O)c2c(C)[nH]n(-c3ccccc3)c2=O)cc1OC the results were GIV Gai3 FP 76*, GIV Gai FP conf 44* and GIV Gai AS conf 4694*.
For CCOc1cc(C(c2c(C)[nH]n(-c3ccccc3)c2=O)c2c(C)[nH]n(-c3ccccc3)c2=O)ccc1OCc1ccc(Cl)cc1 the results were GIV Gai3 FP 81*, GIV Gai FP conf 52* and GIV Gai AS conf 31576.
COc1ccc(C(c2c(C)[nH]n(-c3ccccc3)c2=O)c2c(C)[nH]n(-c3ccccc3)c2=O)cc1 was read as GIV Gai3 FP 91.
For Cc1[nH]n(-c2ccccc2)c(=O)c1C(c1ccccc1O)c1c(C)[nH]n(-c2ccccc2)c1=O the results were GIV Gai3 FP 67*, GIV Gai FP conf 64 and GIV Gai AS conf 17967*.
For Cc1[nH]n(-c2ccccc2)c(=O)c1C(c1ccc(F)cc1)c1c(C)[nH]n(-c2ccccc2)c1=O the results were GIV Gai3 FP 72*, GIV Gai FP conf 61 and GIV Gai AS conf 24882*.
Screening CCOc1cc(C(c2c(C)[nH]n(-c3ccccc3)c2=O)c2c(C)[nH]n(-c3ccccc3)c2=O)ccc1O returned HCMV NEC inh 40 and GIV Gai3 FP 113.
For Cc1[nH]n(-c2ccccc2)c(=O)c1C(c1cc(Cl)ccc1O)c1c(C)[nH]n(-c2ccccc2)c1=O the results were HCMV NEC inh -23 and GIV Gai3 FP 100.
Screening O=C(COC(=O)c1cc(=O)c2ccccc2o1)c1ccc2[nH]c(=O)[nH]c2c1 returned HCMV NEC inh -15.
Screening Cc1ccc(S(=O)(=O)NN(C)C)cc1 returned HCMV NEC inh -5 and GIV Gai3 FP 99.
`O=C(NC1CCCCC1)[C@H]1CCCC[C@H]1C(=O)O` gave HCMV NEC inh -20 and GIV Gai3 FP 98.
